BindingDB's records for doi:10.1007/s00044-008-9094-3 (The Medical University of Warsaw, 2008)

Protein sequences, listed by entry. Tags and fused reporters are not part of them.
UniProt P19327, whole entry: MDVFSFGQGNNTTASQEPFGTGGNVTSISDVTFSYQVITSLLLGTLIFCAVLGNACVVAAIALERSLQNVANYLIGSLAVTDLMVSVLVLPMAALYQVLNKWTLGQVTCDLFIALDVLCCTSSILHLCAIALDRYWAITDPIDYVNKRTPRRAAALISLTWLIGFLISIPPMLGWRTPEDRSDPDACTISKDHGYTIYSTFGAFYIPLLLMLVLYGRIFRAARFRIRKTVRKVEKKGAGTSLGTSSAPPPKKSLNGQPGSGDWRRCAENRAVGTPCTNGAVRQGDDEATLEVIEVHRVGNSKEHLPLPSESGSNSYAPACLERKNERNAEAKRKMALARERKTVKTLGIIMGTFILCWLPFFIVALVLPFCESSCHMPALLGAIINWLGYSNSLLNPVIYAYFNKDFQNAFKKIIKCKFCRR

Biological target: 5-hydroxytryptamine receptor 1A (Rattus norvegicus, UniProt P19327)
Test: Binding Assay

`NCCc1c[nH]c2ccc(O)cc12` [[3H]-5-HT] was tested. Which Ki did it give?
Its Ki is 90 nM.
